From ChEMBL document CHEMBL1154662, “alphavbeta3 Integrin-targeting Arg-Gly-Asp (RGD) peptidomimetics containing oligoethylene glycol (OEG) spacers” (J Med Chem, 2009)

Protein sequences, listed by entry. Tags and fused reporters are not part of them. Residues count along the entry.
UniProt P05106, 27-788 limits assumed: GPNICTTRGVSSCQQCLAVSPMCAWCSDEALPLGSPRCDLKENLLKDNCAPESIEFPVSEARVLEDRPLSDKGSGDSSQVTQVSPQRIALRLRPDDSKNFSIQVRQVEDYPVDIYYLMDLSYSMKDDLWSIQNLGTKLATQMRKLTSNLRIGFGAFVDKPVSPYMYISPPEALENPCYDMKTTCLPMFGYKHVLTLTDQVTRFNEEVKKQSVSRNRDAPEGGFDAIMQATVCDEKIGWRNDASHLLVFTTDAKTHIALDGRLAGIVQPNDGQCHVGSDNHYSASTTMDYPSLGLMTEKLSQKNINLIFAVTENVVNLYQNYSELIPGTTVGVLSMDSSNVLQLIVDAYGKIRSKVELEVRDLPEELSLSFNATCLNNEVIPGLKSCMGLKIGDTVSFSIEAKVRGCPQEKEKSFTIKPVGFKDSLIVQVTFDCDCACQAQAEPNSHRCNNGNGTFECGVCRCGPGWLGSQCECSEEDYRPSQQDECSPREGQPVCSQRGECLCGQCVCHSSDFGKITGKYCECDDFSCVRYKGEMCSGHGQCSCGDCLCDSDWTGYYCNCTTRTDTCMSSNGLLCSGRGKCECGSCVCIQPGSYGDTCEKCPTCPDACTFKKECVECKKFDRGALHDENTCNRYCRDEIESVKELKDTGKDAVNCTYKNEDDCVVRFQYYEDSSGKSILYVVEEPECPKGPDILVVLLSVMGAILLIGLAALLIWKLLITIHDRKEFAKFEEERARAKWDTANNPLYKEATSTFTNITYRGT
UniProt P08514, 32-887 limits assumed: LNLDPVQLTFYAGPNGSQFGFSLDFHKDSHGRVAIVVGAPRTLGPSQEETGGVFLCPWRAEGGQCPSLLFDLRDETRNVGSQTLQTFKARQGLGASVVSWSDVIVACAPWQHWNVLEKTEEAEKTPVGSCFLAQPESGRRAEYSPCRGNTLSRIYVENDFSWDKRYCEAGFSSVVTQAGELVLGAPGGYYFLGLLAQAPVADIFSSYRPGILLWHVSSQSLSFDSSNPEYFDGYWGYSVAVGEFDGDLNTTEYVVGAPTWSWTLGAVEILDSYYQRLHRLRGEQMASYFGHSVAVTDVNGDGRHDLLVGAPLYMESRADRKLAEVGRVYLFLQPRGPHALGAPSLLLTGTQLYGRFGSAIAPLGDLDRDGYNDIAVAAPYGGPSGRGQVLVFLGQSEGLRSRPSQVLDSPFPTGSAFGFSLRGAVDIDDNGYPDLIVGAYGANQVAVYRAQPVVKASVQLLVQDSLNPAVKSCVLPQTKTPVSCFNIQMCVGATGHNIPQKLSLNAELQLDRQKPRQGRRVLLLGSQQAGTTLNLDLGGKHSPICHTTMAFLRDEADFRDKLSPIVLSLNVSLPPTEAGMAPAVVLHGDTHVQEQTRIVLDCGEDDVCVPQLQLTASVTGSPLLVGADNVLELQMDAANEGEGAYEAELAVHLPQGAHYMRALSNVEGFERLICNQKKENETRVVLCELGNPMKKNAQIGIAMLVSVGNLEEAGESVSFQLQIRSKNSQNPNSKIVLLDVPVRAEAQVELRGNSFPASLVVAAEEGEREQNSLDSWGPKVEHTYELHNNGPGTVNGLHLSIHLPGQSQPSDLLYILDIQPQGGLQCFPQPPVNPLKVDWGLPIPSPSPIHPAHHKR
UniProt P08514, 891-1039 limits assumed: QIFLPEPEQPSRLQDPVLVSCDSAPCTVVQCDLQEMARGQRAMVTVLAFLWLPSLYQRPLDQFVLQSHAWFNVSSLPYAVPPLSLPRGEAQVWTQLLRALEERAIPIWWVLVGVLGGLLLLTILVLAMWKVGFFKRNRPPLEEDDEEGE

Biological target: Integrin alpha-IIb/beta-3 (Homo sapiens, UniProt P05106+P08514)
Test: Inhibition of human integrin alpha2b beta3 receptor by fibrinogen competitive binding assay
Assay type: protein-complex assay
Procedure, shortened: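 Platelet αIIbβ3, affinity-purified, adsorbed at 1 μg/mL in Tris buffer (2 mM CaCl2, 1 mM MgCl2 and MnCl2, pH 7.5) for 1 h at room temperature, then blocked with 1% albumin. Exposed 30 min to excess biotinylated fibrinogen with varied compound levels. Detection used anti-biotin–alkaline phosphatase and p-nitrophenyl phosphate, read at 405 nm. IC50 derived from at least two pooled dose-response experiments.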

IC50: 120 nM
Compound: N=C(N)NCCC[C@H](NC(=O)CN)C(=O)NCC(=O)N[C@@H](CC(=O)O)C(=O)N[C@@H](CO)C(=O)O
